Results reported in patent US7368433B2, “Peptides and methods for the control of obesity” (University of Florida Research Foundation, Inc., priority 2002, dated 2008).

The chains behind the UniProt entries cited, without tags or fusion partners. Where a name states a change or a piece, a line headed by the entry shows the natural chain unless it says otherwise.
UniProt Q01727: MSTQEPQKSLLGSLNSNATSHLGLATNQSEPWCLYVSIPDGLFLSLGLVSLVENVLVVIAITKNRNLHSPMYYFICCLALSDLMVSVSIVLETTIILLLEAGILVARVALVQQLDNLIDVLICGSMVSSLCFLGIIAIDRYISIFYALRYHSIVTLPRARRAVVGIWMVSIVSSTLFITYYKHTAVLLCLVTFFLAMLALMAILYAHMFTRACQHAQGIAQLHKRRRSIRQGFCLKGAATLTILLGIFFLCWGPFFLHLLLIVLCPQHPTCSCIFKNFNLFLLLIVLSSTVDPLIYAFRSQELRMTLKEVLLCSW

Biological target: T1, mMC1R (Mus musculus, UniProt Q01727)
T1 construct: expressed in transfected cells; host or cells: HEK-293
Assay: Functional bioassay (CRE/β-galactosidase reporter), agonist activity at mMC1R
Format: cell-based
Details: HEK-293 cells stably expressing receptor; ± standard error of the mean, at least four experiments
Description: For cell culture and transfection, briefly, HEK-293 cells were maintained in Dulbecco's modified Eagle's medium (DMEM) with 10% fetal calf serum and seeded 1 day prior to transfection at 1 to 2×10^6 cell/100-mm dish. Melanocortin receptor DNA in the pcDNA3 expression vector (20 μg) were transfected using the calcium phosphate method. Stable receptor populations were generated using G418 selection (1 mg/mL) for subsequent bioassay analysis.
In the functional bioassay studies, HEK-293 cells stably expressing the melanocortin receptors were transfected with 4 μg CRE/β-galactosidase reporter gene as previously described in the literature. Briefly, 5,000 to 15,000 post transfection cells were plated into 96 well Primera plates (Falcon) and incubated overnight. […] The sample absorbance, OD405, was measured using a 96 well plate reader (Molecular Devices). The relative protein was determined by adding 200 μL 1:5 dilution Bio Rad G250 protein dye:water to the 10 μL cell lysate sample taken previously, and the OD595 was measured on a 96 well plate reader (Molecular Devices). […]
The pA2 values were generated using the Schild analysis method [Schild, H. O. pA2, A New Scale for the Measurement of Drug Antagonism. […] EC50 and pA2 estimates, and their associated standard errors, were determined by fitting the data to a nonlinear least-squares analysis using the PRISM program (v3.0, GraphPad Inc.).

EC50: 20.1 ± 0.57 nM
Compound: CC(=O)N[C@@H](Cc1cnc[nH]1)C(=O)N[C@H](Cc1ccccc1)C(=O)N[C@@H](CCCN=C(N)N)C(=O)N[C@@H](Cc1c[nH]c2ccccc12)C(N)=O [JRH279-31, Ac-His-DPhe-Arg-Trp-NH2]
